Patent US6566361B2, “Azapirone pain treatment” (priority 1999, dated 2003)

Experiment: Rat plasma concentrations of buspirone and APAP over time
From the text: It also has agonistic action at presynaptic D2 dopaminergic receptors. Acetaminophen is believed to act by elevating the pain threshold in patients.

Substance: 8-[4-[4-(2-pyrimidinyl)1-piperazinyl]butyl-8-azaspiro(4,5)-decane-7,9-dione [buspirone]
- Plasma concentrations over time, alone vs in combination: do not differ significantly whether given alone or in combination
